Amino acid sequences for entries named in this document (tags omitted). A change or cut given only in a name is not applied to a line headed by its entry.
UniProt Q13547, whole entry: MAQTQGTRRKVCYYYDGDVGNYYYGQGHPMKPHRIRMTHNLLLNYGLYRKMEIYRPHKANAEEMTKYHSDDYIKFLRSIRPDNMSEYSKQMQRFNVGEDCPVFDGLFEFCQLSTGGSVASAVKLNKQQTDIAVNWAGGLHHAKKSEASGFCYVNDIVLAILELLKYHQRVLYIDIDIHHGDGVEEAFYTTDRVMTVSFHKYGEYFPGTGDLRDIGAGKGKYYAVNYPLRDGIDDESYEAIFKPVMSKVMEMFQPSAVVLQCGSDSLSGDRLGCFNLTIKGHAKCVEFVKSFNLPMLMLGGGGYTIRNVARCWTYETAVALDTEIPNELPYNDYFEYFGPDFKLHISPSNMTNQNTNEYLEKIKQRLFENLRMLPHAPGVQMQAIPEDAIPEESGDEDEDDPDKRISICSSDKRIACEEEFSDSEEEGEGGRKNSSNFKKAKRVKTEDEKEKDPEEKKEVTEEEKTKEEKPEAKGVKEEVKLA
UniProt Q92769, whole entry: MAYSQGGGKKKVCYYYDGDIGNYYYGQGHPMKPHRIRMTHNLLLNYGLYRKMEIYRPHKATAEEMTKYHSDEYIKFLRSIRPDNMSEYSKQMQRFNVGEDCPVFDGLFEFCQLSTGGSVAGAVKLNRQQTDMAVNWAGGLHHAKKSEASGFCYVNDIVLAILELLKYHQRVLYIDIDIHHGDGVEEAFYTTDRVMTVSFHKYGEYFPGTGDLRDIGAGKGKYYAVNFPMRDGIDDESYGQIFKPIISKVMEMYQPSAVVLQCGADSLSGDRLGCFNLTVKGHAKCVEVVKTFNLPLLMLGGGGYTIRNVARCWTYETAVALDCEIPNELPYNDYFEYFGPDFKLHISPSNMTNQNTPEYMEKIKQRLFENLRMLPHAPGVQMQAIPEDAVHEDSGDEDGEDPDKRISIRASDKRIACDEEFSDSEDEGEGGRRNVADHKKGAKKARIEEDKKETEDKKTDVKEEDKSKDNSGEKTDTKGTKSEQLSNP
UniProt O15379: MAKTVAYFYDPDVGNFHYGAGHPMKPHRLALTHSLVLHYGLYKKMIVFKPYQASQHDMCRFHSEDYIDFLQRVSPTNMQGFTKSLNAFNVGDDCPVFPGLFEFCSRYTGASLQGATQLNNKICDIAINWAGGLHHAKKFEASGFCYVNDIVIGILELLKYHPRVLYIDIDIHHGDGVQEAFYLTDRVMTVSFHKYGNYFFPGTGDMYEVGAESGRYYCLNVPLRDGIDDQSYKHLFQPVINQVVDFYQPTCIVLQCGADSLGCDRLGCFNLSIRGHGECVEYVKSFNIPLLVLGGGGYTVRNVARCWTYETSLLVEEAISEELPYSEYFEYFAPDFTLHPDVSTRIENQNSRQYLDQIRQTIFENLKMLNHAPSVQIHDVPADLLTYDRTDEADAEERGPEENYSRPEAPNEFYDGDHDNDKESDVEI

In ChEMBL document CHEMBL4017444, “Development of N-hydroxycinnamamide-based HDAC inhibitors with improved HDAC inhibitory activity and in vitro antitumor activity” (Bioorg Med Chem, 2017):

Legend:
[1] = biological target: Histone deacetylase 1 (Homo sapiens, UniProt Q13547); test: Inhibition of HDAC1 (unknown origin) using Ac-Leu-GlyLys(Ac)-AMC as substrate preincubated for 5 mins followed by substrate addition measured after 30 mins by fluorescence assay
[2] = biological target: Histone deacetylase 2 (Homo sapiens, UniProt Q92769); test: Inhibition of HDAC2 (unknown origin) using Ac-Leu-GlyLys(Ac)-AMC as substrate preincubated for 5 mins followed by substrate addition measured after 30 mins by fluorescence assay
[3] = biological target: Histone deacetylase 3 (Homo sapiens, UniProt O15379); test: Inhibition of HDAC3 (unknown origin) using Ac-Leu-GlyLys(Ac)-AMC as substrate preincubated for 5 mins followed by substrate addition measured after 30 mins by fluorescence assay

Structure (SMILES): CCCC(CCC)C(=O)N[C@H](COc1ccc(/C=C/C(=O)NO)cc1OC)Cc1c[nH]c2ccccc12
- IC50 [1]: 0.18 µM
- IC50 [2]: 0.322 µM
- IC50 [3]: 0.0075 µM
